Laboratory results taken from ChEMBL document CHEMBL1135075, “Synthesis and biological evaluation of imidazol-2-one and 2-cyanoiminoimidazole derivatives: novel series of PDE4 inhibitors” (Bioorg Med Chem Lett, 2002).

By UniProt entry, the sequences of proteins in these tests, tags left out. Where a name states a change or a piece, a line headed by the entry shows the natural chain unless it says otherwise.
UniProt Q07343: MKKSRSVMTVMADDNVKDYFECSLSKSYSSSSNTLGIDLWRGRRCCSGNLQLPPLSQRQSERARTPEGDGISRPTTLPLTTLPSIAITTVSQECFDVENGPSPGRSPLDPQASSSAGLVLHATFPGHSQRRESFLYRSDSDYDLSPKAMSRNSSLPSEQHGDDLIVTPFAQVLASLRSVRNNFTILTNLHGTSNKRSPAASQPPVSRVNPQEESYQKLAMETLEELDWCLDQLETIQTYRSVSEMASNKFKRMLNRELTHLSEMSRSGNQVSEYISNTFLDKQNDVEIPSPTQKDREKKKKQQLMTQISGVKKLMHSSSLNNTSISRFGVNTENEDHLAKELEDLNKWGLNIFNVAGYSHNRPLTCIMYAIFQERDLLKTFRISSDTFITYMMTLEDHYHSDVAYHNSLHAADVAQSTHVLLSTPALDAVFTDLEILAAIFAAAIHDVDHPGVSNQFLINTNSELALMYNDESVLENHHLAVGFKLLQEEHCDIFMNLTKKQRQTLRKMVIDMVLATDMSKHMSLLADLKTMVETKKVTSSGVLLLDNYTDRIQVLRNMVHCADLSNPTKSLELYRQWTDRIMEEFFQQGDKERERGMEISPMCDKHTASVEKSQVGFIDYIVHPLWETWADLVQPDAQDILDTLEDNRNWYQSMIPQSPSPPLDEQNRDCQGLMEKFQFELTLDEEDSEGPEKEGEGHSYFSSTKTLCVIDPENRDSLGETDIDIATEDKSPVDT

Molecular target: 3',5'-cyclic-AMP phosphodiesterase 4B (Homo sapiens, UniProt Q07343)
Experiment: Inhibitory activity against recombinant phosphodiesterase 4B (PDE4B) of human mononuclear lymphocytes

COc1ccc([C@H](C)Cn2ccnc2NC#N)cc1OC1Cc2ccccc2C1
IC50: 57 nM
